Columns and labels:
Details in all cases: antagonist
NK1 = NK1 (Homo sapiens, UniProt P25103); test: Signal transduction (ST), intracellular Ca++ (FLIPR), functional NK1 antagonistic activity
Experimental: (§1) This test evaluates in vitro functional NK1 antagonistic activity. For the measurements of intracellular Ca^++ concentrations the cells were grown on 96-well (black wall/transparent bottom) plates from Costar for 2 days until they reached confluence. The cells were loaded with 2 μM Fluo3 in DMEM containing 0.1% BSA and 2.5 mM probenecid for 1 h at 37° C. They were washed 3× with a Krebs buffer (140 mM NaCl, 1 mM MgCl2×6H2O, 5 mM KCl, 10 mM glucose, 5 mM HEPES; 1.25 mM CaCl2; pH 7.4) containing 2.5 mM probenecid and 0.1% BSA (Ca^++-buffer). The cells were preincubated with a concentration range of antagonists for 20 min at RT and Ca^++-signals after addition of the agonists were measured in a Fluorescence Image Plate Reader (FLIPR from Molecular Devices, Crawley, England). The peak of the Ca^++-transient was considered as the relevant signal and the mean values of corresponding wells were analysed as described below.
(§2) The sigmoidal dose response curves were analysed by computerised curve-fitting, using the GraphPad Program. The EC50-value of a compound is the effective dose showing 50% of maximal effect. For mean curves the response to the agonist with the highest potency was normalised to 100%. For antagonist responses the IC50-value was calculated using non-linear regression.
(§3) The last columns indicate—without being limited thereto—for which action the compounds might be most suitable. Of course, since for some neurokinin receptors no data was determined, it is obvious that these compounds might be attributed to another suitable use.

Protein sequences, listed by entry. Tags and fused reporters are not part of them.
UniProt P25103, whole entry: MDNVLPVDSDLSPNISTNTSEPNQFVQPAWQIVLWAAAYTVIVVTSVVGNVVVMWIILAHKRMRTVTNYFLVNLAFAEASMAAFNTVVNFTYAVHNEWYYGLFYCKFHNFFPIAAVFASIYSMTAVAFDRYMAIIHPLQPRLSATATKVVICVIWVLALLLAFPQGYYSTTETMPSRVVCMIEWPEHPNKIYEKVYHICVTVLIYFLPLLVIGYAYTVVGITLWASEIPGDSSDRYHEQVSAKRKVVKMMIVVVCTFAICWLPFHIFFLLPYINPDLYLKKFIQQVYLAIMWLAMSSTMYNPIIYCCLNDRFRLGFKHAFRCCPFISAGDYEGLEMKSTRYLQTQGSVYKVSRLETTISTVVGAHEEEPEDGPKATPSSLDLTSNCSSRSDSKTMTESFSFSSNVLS
UniProt P21452, whole entry: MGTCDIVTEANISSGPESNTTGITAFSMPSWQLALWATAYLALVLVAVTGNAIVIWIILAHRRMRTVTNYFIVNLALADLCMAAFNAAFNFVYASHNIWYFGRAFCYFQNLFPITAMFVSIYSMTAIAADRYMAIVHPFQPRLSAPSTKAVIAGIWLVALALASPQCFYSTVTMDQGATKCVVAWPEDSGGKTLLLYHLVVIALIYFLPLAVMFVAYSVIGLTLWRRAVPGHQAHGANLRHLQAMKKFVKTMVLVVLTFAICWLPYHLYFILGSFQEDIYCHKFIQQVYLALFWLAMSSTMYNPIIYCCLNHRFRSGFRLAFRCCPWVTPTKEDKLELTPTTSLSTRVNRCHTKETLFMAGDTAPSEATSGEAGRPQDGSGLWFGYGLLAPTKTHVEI
UniProt P29371, whole entry: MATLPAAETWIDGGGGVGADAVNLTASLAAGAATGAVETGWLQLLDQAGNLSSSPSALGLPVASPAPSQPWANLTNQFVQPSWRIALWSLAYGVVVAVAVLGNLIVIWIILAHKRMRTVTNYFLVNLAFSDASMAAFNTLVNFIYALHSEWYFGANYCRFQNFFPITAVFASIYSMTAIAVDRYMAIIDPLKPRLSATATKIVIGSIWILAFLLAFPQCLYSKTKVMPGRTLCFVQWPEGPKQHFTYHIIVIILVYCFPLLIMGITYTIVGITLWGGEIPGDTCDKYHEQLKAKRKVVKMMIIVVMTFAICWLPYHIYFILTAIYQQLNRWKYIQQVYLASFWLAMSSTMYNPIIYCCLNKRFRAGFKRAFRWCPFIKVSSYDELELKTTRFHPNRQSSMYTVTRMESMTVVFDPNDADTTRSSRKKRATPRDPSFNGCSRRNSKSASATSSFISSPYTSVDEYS

NK2 = NK2 (Homo sapiens, UniProt P21452); test: Signal transduction (ST), intracellular Ca++ (FLIPR), NK2
Experimental: [The source words this procedure for another target and reports this target under the same test.] as §1, §2, §3

NK3 = NK3 (Homo sapiens, UniProt P29371); test: Signal transduction (ST), intracellular Ca++ (FLIPR), NK3
Experimental: [The source words this procedure for another target and reports this target under the same test.] as §1, §2, §3

O=C1CC[C@H](C(=O)N2CCC3(CC2)CCN([C@H]2CCN(C(=O)c4cc(C(F)(F)F)cc(C(F)(F)F)c4)[C@H](Cc4ccccc4)C2)CC3)N1
NK1 pIC50 (NK1): 7.44
NK2 pIC50 (NK2): 5.75
NK3 pIC50 (NK3): <5

CCC=C(C)C(=O)N1CCC2(CC1)CCN(C1CCN(C(=O)c3cc(C(F)(F)F)cc(C(F)(F)F)c3)C(Cc3ccccc3)C1)CC2 (stereo not drawn)
NK1 pIC50 (NK1): 6.97
NK2 pIC50 (NK2): <5
NK3 pIC50 (NK3): <5

O=C1CC2(CCN1CC1CC1)CCN([C@@H]1CCN(C(=O)c3cc(C(F)(F)F)cc(C(F)(F)F)c3)[C@H](Cc3ccccc3)C1)CC2
NK1 pIC50 (NK1): 6.67
NK2 pIC50 (NK2): 5.19
NK3 pIC50 (NK3): ~5.51

CC(=CC(=O)N1CCC2(CC1)CCN(C1CCN(C(=O)c3cc(C(F)(F)F)cc(C(F)(F)F)c3)C(Cc3ccccc3)C1)CC2)c1ccccc1 (stereo not drawn)
NK1 pIC50 (NK1): 6.41
NK2 pIC50 (NK2): 5.22
NK3 pIC50 (NK3): <5

Reference: patent US7544694B2, “Substituted diaza-spiro-[5.5]-undecane derivatives and their use as neurokinin antagonists” (Janssen Pharmaceutica N.V., priority 2004, dated 2009)
